# Assay results taken from patent publication US20220168472A1, “ENZYME-DEGRADABLE HYDROGEL FOR DELIVERY OF A PAYLOAD” (priority 2019, published 2022).
# Tested on: MMP-8
# Experiment: Controlled release of FITC-dextran via enzymatic degradation of GelMA/GelMA+ disks by MMP-8
# Format: physicochemical
# Settings: high methacrylation GelMA patches, PBS or 1 μg/ml MMP-8
# Description: IRGACURE 2959 Photo Initiator (Sigma-Aldrich) was dissolved in PBS at 60° C. for one hour to make a 0.5% solution. Lyophilized GelMA powder was dissolved in the solution at 60° C. for 2 days to ensure the powder was completely solubilized. FITC-dextran (4 kDa and 70 kDa; Sigma-Aldrich) was added to the GelMA solution to achieve a 5 mg/ml FITC-dextran concentration. The solution was vortexed to ensure homogeneity and centrifuged at 5000 RPM for 5 minutes to remove bubbles. To reverse any physical gelling that may have occurred during the centrifugation step the solution was then heated to 60° C. in an oven. […]
# To characterize their enzymatic degradation and resulting release profile, 6 mm diameter GelMA disks were placed in a 24-well plate and incubated at 37° C. […] At the previously defined time points, the collected enzyme solutions were placed in a 48-well plate and stored in −80° C. until ready for quantification. 100 μl of sample solution collected at each time point was transferred to a black 96-well plate and fluorescence was quantified using a plate reader, at a fluorescence excitation of 490 nm and emission of 520 nm. The accumulative release was calculated in Excel using a FITC-dextran calibration curve and graphed using GraphPad Prism 6. […]
Substance,release profile from the hydrogel,time to complete elution from the hydrogel [h]
Fluorescein isothiocyanate (FITC)-dextran [70 kDa FITC-dextran],concentration and crosslinking-dependent release profile,
Fluorescein isothiocyanate (FITC)-dextran [4 kDa FITC-dextran],,≤ 10
